Laboratory results: publication PMC5785997, “2-Phenylquinazolinones as dual-activity tankyrase-kinase inhibitors” (Scientific Reports, 2018)
pIC50: −log10 of the molar value. Where “and” joins values, the source holds several entries; their conditions need not be identical. Equal values may be shown once. Read-outs that look alike come from different tables or passages of the source.

Protein sequences, listed by entry. Tags and fused reporters are not part of them. Residues count along the entry.
UniProt Q9H2K2, 959-1164: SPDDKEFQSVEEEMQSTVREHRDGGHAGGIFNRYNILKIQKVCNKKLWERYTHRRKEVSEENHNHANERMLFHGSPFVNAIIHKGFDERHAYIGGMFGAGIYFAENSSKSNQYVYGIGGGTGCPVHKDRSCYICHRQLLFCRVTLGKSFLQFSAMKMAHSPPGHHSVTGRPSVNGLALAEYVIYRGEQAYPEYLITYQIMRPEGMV

Target: TNKS2 (Homo sapiens, UniProt Q9H2K2)
Experiment: NAD+ quantification activity assay, TNKS2
Assay type: biochemical
Method: The activity assay used to measure the potency of the compounds against TNKS2 is based on the quantification of NAD^+[38]. The reactions were carried out in 96-well plate (Greiner bio-one, U-shaped) and the conditions were the same as reported earlier (Table S5)[24].
The compounds were stored in 100% DMSO at −20 °C. All the compounds were diluted in the TNKS2 assay buffer (50 mM Bis-Tris Propane, 0.5 mM TCEP, 0.01% Triton-100x). Control reactions were used to exclude the effect of compound fluorescence and quenching from the calculations. […] The pIC50 values were calculated and fitted with nonlinear regression using 4-parameters with GraphPad Prism (version 5.0 for windows).
Protein (nM) NAD+ (nM) Incubation Buffer
Kinase [ATP] Substrate Incubation Reaction buffer

Row | pIC50 (Table 1, read-out: TNKS2 IC50 (shown for comparison)) | pIC50 (TNKS2 IC50, NAD+ 500 nM) | Compound
1 | 6.84 |  | Nc1ccc(-c2nc3ccccc3c(=O)[nH]2)cc1 [C00007]
2 |  | 6.84 and 7.15 | Nc1ccc(-c2nc3ccccc3c(=O)[nH]2)cc1 [Compound 28]
